Target: Src kinase (UniProt P12931)

Kd: 0.2 µM
Substance: Na,K-ATPase (from UniProt P05023)
